This is an account of results in PubChem BioAssay AID602163 (The Scripps Research Institute Molecular Screening Center, 2012).

This is a selection; strong and weak results do not stand in their true shares. Some salts and complexes are drawn in separate pieces, as the source files them; their charges need not balance. Active and inactive are the calls of the source. No stated cut-off is given here; in the data, active means activation above about 7.5%; inactive means the rest.

This test deals with Methionine sulfoxide reductase A (Bos taurus). Nature of the test: activation of methionine sulfoxide reductase A – biochemical, absorbance, bovine, HTS, primary screen (AID 602163).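 Further: 0% = vehicle and 100% = reference activator.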 The settings on record: purified bovine MsrA, absorbance read-out; at 10.6 µM; stronger effect = higher value.
On to `Cc1c(C(c2ccc3c(c2)OCO3)c2c(C)n(C)n(-c3ccccc3)c2=O)c(=O)n(-c2ccccc2)n1C.O=[N+]([O-])c1cc([N+](=O)[O-])c(O)c([N+](=O)[O-])c1`, for which the activation is inactive: -2.28%. With `O=[N+]([O-])c1ccc(OP2(=O)COCCO2)cc1` (stereo not drawn), the activation was inactive: -0.18%. The value for `O=[N+]([O-])c1cc([N+](=O)[O-])c(NCC2CCS(=O)(=O)C2)c([N+](=O)[O-])c1` (stereo not drawn) was inactive: -0.27%; that for `Cc1cc(-c2cccc3ccccc23)c(C)cn1.O=[N+]([O-])c1cc([N+](=O)[O-])c(O)c([N+](=O)[O-])c1` was inactive: -8.23%.

Take `CN(C)CCOC(=O)C(O)(c1ccccc1)C1CCCCC1` (stereo not drawn): the activation is inactive: -1.18%. In the case of `COc1ccc(NP(C)(=O)Oc2ccccc2OC)cc1` (stereo not drawn) it was inactive: -1.42%; in that of `COc1ccc(OP(C)(=O)Nc2cccc(Br)c2)cc1` (stereo not drawn), inactive: 0.17%; in that of `Cc1ccccc1NP(C)(=O)Nc1ccccc1C`, inactive: -0.92%. The value for `O=[N+]([O-])c1cc([N+](=O)[O-])c(C(F)(F)F)c([N+](=O)[O-])c1O` was inactive: 0%; that for `CP(=O)(Nc1ccc2c(c1)OCCO2)Oc1ccccc1` (stereo not drawn) was inactive: 0%. With `CCOP(C)(=S)SCC(=O)NC(C)(CC)C(=O)O` (stereo not drawn), the activation was inactive: 0.09%. The value for `CP(=O)(Nc1ccc(SC(F)(F)F)cc1)Oc1ccc(F)cc1` (stereo not drawn) was inactive: -3.13%; that for `COc1ccc2c(c1O)-c1c(O)c(OC)cc3c1[C@H](C2)[N+](C)(C)CC3.O=[N+]([O-])c1cc([N+](=O)[O-])c([O-])c([N+](=O)[O-])c1[O-]` was inactive: -5.1%; that for `O=C(OC1CN2CCC1CC2)c1ccc([N+](=O)[O-])cc1` (stereo not drawn) was inactive: 0.7%. In the case of `O=C(OCCN1CCN(CCOCc2ccccc2)CC1)C(O)(c1ccccc1)c1ccccc1` it was inactive: -5.68%.

Consider `CP(=O)(Nc1ccccc1F)Oc1ccccc1` (stereo not drawn), for which the activation is inactive: -1.17%. The value for `CC(C)c1ccc(OP(C)(=O)Nc2ccc(SC(F)(F)F)cc2)cc1` (stereo not drawn) was inactive: 1.04%; that for `O=[N+]([O-])c1cc([N+](=O)[O-])c(Nc2ccc(Cl)cc2)c([N+](=O)[O-])c1` was inactive: 3.44%; that for `CP(=O)(Nc1ccccc1)Oc1ccc(F)cc1` (stereo not drawn) was inactive: -0.75%. `CCCCCOc1ccc(NP(C)(=O)Oc2ccc(Cl)cc2Cl)cc1` (stereo not drawn): the activation is inactive: 2.59%. The value for `O=[N+]([O-])c1cc([N+](=O)[O-])c(OC2CCCCC2O)c([N+](=O)[O-])c1` (stereo not drawn) was inactive: -3.02%; that for `Cc1c([N+](=O)[O-])cc([N+](=O)[O-])c(Br)c1[N+](=O)[O-]` was inactive: -2.03%.

Regarding `CCN(CC)CCCOC(=O)C(O)(c1ccccc1)C1CCCCC1` (stereo not drawn), the activation is inactive: -1.38%. The value for `CCOC(=O)c1ccc(NP(C)(=O)Oc2ccc(F)cc2)cc1` (stereo not drawn) was inactive: -4.38%; that for `COc1ccc(OP(C)(=O)Nc2ccc(SC(F)(F)F)cc2)cc1` (stereo not drawn) was inactive: -0.93%; that for `CCN(CC)CCCNc1ccccc1[N+](=O)[O-].O=[N+]([O-])c1cc([N+](=O)[O-])c(O)c([N+](=O)[O-])c1` was inactive: -5.46%. In the case of `CP(=O)(OCCOc1ccccc1)OCCOc1ccccc1` it was inactive: -6.81%; in that of `CCCCCCCCCCCCCCCC1C[N+](C)(C)CCOP(C)(=O)O1` (stereo not drawn), inactive: -2.58%. Consider `CP(=O)(Nc1ccc(Cl)cc1Cl)Oc1ccccc1` (stereo not drawn), for which the activation is inactive: -5.85%. On to `COc1ccccc1OP(C)(=O)Nc1ccc(C)c(C)c1` (stereo not drawn), for which the activation was inactive: -1.04%. For the compound `COc1ccc(OP(C)(=O)Nc2ccccc2Br)cc1` (stereo not drawn), the activation is inactive: -3.54%. In the case of `Cc1cc(C)cc(OP(C)(=O)Nc2cccc(C(F)(F)F)c2)c1` (stereo not drawn) it was inactive: -6.75%; in that of `O=C1C(O)=C([N+](=O)[O-])C(=O)C(O)=C1[N+](=O)[O-]`, inactive: -3.73%; in that of `COc1ccccc1OP(C)(=O)Nc1ccc(C)cc1C` (stereo not drawn), inactive: -5.92%. The value for `CP(=O)(Nc1ccccn1)Oc1ccccc1` (stereo not drawn) was inactive: -10.8%. In the case of `CCc1ccc(OP(C)(=O)O)cc1` it was inactive: -5.06%. Consider `O=[N+]([O-])c1cc([N+](=O)[O-])c(Nc2ccccn2)c([N+](=O)[O-])c1`, for which the activation is inactive: 1.15%. Regarding `Cc1c(NP(C)(=O)Oc2ccc(C(C)C)cc2)c(=O)n(-c2ccccc2)n1C` (stereo not drawn), the activation was inactive: -1.12%. In the case of `COc1ccc(OP(C)(=O)Nc2ccccn2)cc1` (stereo not drawn) it was inactive: -2.55%.

As for `CN(C)CCOC(=O)C(O)(c1ccccc1)C1CCCC1` (stereo not drawn), the activation was inactive: -2.28%. Turning to `COc1ccccc1OP(C)(=O)Nc1ccc(Br)cc1` (stereo not drawn), the activation was inactive: -3.41%. For the compound `CN(C)C(=O)c1c([N+](=O)[O-])cc([N+](=O)[O-])cc1[N+](=O)[O-]`, the activation was inactive: 0.78%. As for `CC(C)(C)c1ccc(OP(C)(=O)O)cc1`, the activation was inactive: 0.5%. As to `COc1ccccc1OP(C)(=O)Nc1ccccc1Br` (stereo not drawn), the activation was inactive: 0.1%. For `CP(=O)(Nc1ccc(Cl)cc1)Oc1ccc(F)cc1` (stereo not drawn), the activation was inactive: -0.19%. As to `O=C(OCCCN1CCCC1)C(O)(c1ccccc1)C1CCCCC1` (stereo not drawn), the activation is inactive: -4.48%. In the case of `COc1ccccc1OP(C)(=O)Nc1c(C)n(C)n(-c2ccccc2)c1=O` (stereo not drawn) it was inactive: -3.77%; in that of `CCc1ccc(OP(C)(=O)Nc2cccnc2)cc1` (stereo not drawn), inactive: -1.19%; in that of `CP(=O)(Oc1ccccc1)N1CCOC1=O` (stereo not drawn), inactive: 0.39%. Turning to `COc1ccc(OP(C)(=O)Nc2ccc(Br)cc2)cc1` (stereo not drawn), the activation was inactive: -1.46%.

For `CCN(CC)CC(O)COC(=O)C(O)(c1ccccc1)C1CCCCC1` (stereo not drawn), the activation is inactive: -1.41%. The value for `CCOC(=O)c1ccc(NP(C)(=O)Oc2ccc(Cl)cc2)cc1` (stereo not drawn) was inactive: -1.61%.

Take `CP(=O)(OC12CC3CC(CC(C3)C1)C2)OC12CC3CC(CC(C3)C1)C2`: the activation is inactive: -1%. In the case of `CP(=O)(Nc1ccccc1Br)Oc1ccccc1` (stereo not drawn) it was inactive: -3.08%.

`COc1ccccc1OP(C)(=O)Nc1ccccc1` (stereo not drawn): the activation is inactive: -4.29%. As to `CP(=S)(Nn1cnnc1)Oc1ccccc1` (stereo not drawn), the activation is inactive: -11.4%. The value for `CP(=O)(Nc1ccccn1)Oc1ccc(Cl)cc1` (stereo not drawn) was inactive: -6.26%; that for `O=[N+]([O-])c1cc([N+](=O)[O-])c(O)c([N+](=O)[O-])c1.c1ccc(Oc2ccncc2)cc1` was inactive: -1.97%; that for `CCOC(=O)c1ccc(NP(C)(=O)Oc2ccc(OC)cc2)cc1` (stereo not drawn) was inactive: 1.06%. As for `CCOP(C)(=S)SCC(=O)NC(C)C(=O)O` (stereo not drawn), the activation was inactive: -4%. In the case of `Cc1cc(C)cc(OP(C)(=O)Nc2ccc(SC(F)(F)F)cc2)c1` (stereo not drawn) it was inactive: -8.82%. In the case of `CCc1ccc(OP(C)(=O)N2CCN(c3ccc([N+](=O)[O-])cc3)CC2)cc1` (stereo not drawn) it was inactive: 0.09%; in that of `CP(=O)(NC(=O)Nc1ccccc1)Oc1ccccc1` (stereo not drawn), inactive: -10.4%; in that of `CP(=O)(Oc1ccccc1)OC(c1ccccc1)C(F)(F)F` (stereo not drawn), inactive: -1.73%. Regarding `CP(=O)(Nc1ccc(SC(F)(F)F)cc1)Oc1ccc(Cl)cc1` (stereo not drawn), the activation is inactive: -0.83%. The value for `Cc1cccc(C)c1OP(C)(=O)Nc1ccc(SC(F)(F)F)cc1` (stereo not drawn) was inactive: 0%. In the case of `Cc1ccc(Nc2c([N+](=O)[O-])cc([N+](=O)[O-])cc2[N+](=O)[O-])cc1` it was inactive: 1.76%; in that of `COc1ccccc1-c1ccccn1.O=[N+]([O-])c1cc([N+](=O)[O-])c(O)c([N+](=O)[O-])c1`, inactive: -7.38%; in that of `CCN(CC)CCCOC(=O)C(O)(c1ccccc1)c1ccccc1`, inactive: -7.61%. The value for `Cc1cc(C)cc(OP(C)(N)=O)c1` (stereo not drawn) was inactive: -1.48%; that for `COc1ccc(OP(C)(=O)Nc2cccc(F)c2)cc1` (stereo not drawn) was inactive: 0.1%; that for `COc1ccccc1OP(C)(=O)Nc1cc(Cl)ccc1C` (stereo not drawn) was inactive: -3.18%. With `Cc1ccc(NP(C)(=O)Oc2ccccc2)c(C)c1` (stereo not drawn), the activation is inactive: -3.59%. Take `COc1ccccc1OP(C)(=O)Nc1ccc(C)cc1` (stereo not drawn): the activation is inactive: -7.19%. For `CCOC(=O)c1ccc(NP(C)(=O)Oc2ccccc2)cc1` (stereo not drawn), the activation was inactive: -4.74%.

Take `O=[N+]([O-])c1ccc2c(c1)C=Nc1ccccc1O2`: the activation is inactive: -13%. As to `Cc1cccc(C)c1OP(C)(N)=O` (stereo not drawn), the activation was inactive: -6.34%. The value for `CC(C)(C)c1ccc(OP(C)(=O)Nc2ccc(SC(F)(F)F)cc2)cc1` (stereo not drawn) was inactive: -0.22%; that for `O=[N+]([O-])c1cc([N+](=O)[O-])c(Nc2cccnc2)c([N+](=O)[O-])c1` was inactive: 1.02%. For the compound `CC1=NCCc2c1[nH]c1ccccc21.O=[N+]([O-])c1cc([N+](=O)[O-])c(O)c([N+](=O)[O-])c1`, the activation is inactive: -3.73%. With `O=C(O)c1cccc(Nc2c([N+](=O)[O-])cc([N+](=O)[O-])cc2[N+](=O)[O-])c1`, the activation is inactive: -2.92%. On to `Cc1ccc(C)c(NP(C)(=O)Oc2ccccc2)c1` (stereo not drawn), for which the activation is inactive: -10.9%.

With `CP(=O)(Nc1cccc(Br)c1)Oc1ccccc1` (stereo not drawn), the activation was inactive: -1.59%. For `Cc1cc(C)cc(OP(C)(=O)Nc2ccccn2)c1` (stereo not drawn), the activation was inactive: -8.78%. In the case of `CCOC(=O)c1ccc(NP(C)(=O)Oc2cc(C)cc(C)c2)cc1` (stereo not drawn), the activation was inactive: -1.74%.

Consider `Cc1cc(C)cc(OP(C)(=O)Nc2ccc(C)cc2C)c1` (stereo not drawn), for which the activation is inactive: 2.25%.

Regarding `COc1ccccc1OP(C)(=O)Nc1cccc(Br)c1` (stereo not drawn), the activation was inactive: -1.09%.

With `Cc1nc2ccc3ccccc3c2s1.O=[N+]([O-])c1cc([N+](=O)[O-])c(O)c([N+](=O)[O-])c1`, the activation is inactive: -4.24%. The value for `O=[N+]([O-])c1cc([N+](=O)[O-])c(-c2cnn(-c3ccccc3)c2)c([N+](=O)[O-])c1` was active: 8.6%; that for `CN(Cc1cccnc1)C(=O)COc1ccc(Cl)c(Cl)c1.O=[N+]([O-])c1cc([N+](=O)[O-])c(O)c([N+](=O)[O-])c1` was inactive: -17.7%; that for `O=[N+]([O-])c1cc([N+](=O)[O-])c(-n2nnc3ccccc32)c([N+](=O)[O-])c1` was inactive: -7.67%. The value for `COc1ccc(-c2ccccn2)cc1.O=[N+]([O-])c1cc([N+](=O)[O-])c(O)c([N+](=O)[O-])c1` was inactive: -6.23%; that for `CP(=O)(Nc1ccc(SC(F)(F)F)cc1)Oc1ccccc1` (stereo not drawn) was inactive: -3.32%. In the case of `CCCOc1ccc(NP(C)(=O)Oc2ccc(Cl)cc2)cc1` (stereo not drawn) it was inactive: -1.79%. Take `CN1CCCCC1COC(=O)C1(O)c2ccccc2CCc2ccccc21` (stereo not drawn): the activation is inactive: -12.9%. The value for `COc1ccccc1OP(C)(=O)Nc1c(C)cccc1C` (stereo not drawn) was inactive: 0.86%.

As for `CCOC(=O)C(CC)C1=NC(C)(C)Cc2ccccc21.O=[N+]([O-])c1cc([N+](=O)[O-])c(O)c([N+](=O)[O-])c1` (stereo not drawn), the activation is inactive: -2.29%. The value for `O=[N+]([O-])c1cc([N+](=O)[O-])c(Nc2nnnn2CCO)c([N+](=O)[O-])c1` was inactive: 2.12%.
